This is a selection: effects in other tests are not listed, and their absence says nothing.
Experiments:
[1] = Crossover flux through membrane (ICP-MS); settings: Ti(cat)3 / Fe(CN)6 cell
[2] = Charge density calculated from concentration
[3] = Cyclic voltammetry (half-cell potential, reversibility); type: physicochemical
[4] = Solubility of the couple / active material

Substance	crossover flux ([1]; boiled Nafion NR212, 50 micron thick)	crossover flux ([1]; unboiled Nafion HP, 20 micron thick)	Charge Density (Ah/L) [2]	E1/2, V vs. RHE ([3]; pH 11)	E1/2, V vs. RHE ([3]; pH 11, listed as Fe(CN)6^2−/3−)	Solubility (Molar), 25° C. [4]	E1/2, V vs. RHE ([3]; pH 9)
ferri/ferro-cyanide	5.0×10^−8 mol cm^−2 day^−1	1.1×10^−5 mol cm^−2 day^−1	40.2 Ah/L	1.18 V vs. RHE	+1.18 V vs. RHE	–	–
Potassium hexacyanochromate(III)	–	–	40.2 Ah/L	–	–	≥ 1.5 Molar	−0.60 V vs. RHE
potassium hexacyanomanganate(III)	–	–	40.2 Ah/L	–	–	≥ 1.5 Molar	−0.60 V vs. RHE

— patent publication US10014546B2 (priority 2012, dated 2018)
